Measurements from patent publication US20260053861A1, “CELL COMPOSITIONS AND METHODS OF USING THE SAME” (THE REGENTS OF THE UNIVERSITY OF CALIFORNIA, priority 2022, published 2026).

System: hPSC-SCs
Experiment: High-throughput screening assay for drugs reversing glucose-mediated SC cytotoxicity (Prestwick library; viable cell count, z-score)
Details: HTS viability of hPSC-SCs in the presence of 30 mM glucose, Table S4

Work on `NC(=O)Nc1ccc([As](=O)(O)O)cc1` yielded a z.score.t of −1.346.
